Experimental data taken from publication PMC4669685, “Peptides derived from the dependence receptor ALK are proapoptotic for ALK-positive tumors” (Cell Death & Disease, 2015).

System: ALK phosphorylation in Cost cells
Test: Western blot of ALK tyrosine phosphorylation
Type: cell-based, human
Details: 24 or 48 h, P36 10 μM, PF 0.5 μM or both

## CC(Oc1cc(-c2cnn(C3CCNCC3)c2)cnc1N)c1c(Cl)ccc(F)c1Cl (stereo not shown) [PF, 3-[1-(2,6-dichloro-3-fluoro-phenyl)-ethoxy]-5-(1-piperidin-4-yl-1H-pyrazol-4-yl)-pyridin-2-ylamine]
  level of ALK tyrosine phosphorylation: decreased ALK phosphorylation
